{"source": "patent US8030083B2", "about": "“Method of analyzing protein structural affinity relationship” (Eisai R & D Management Co., Ltd., priority 2004, dated 2011)", "origin": "cited, not measured here", "tested_on": "GSK-3α/β", "settings": "Knockaert et al.; cited from earlier work", "data": [{"smiles": "O=C1Cc2c([nH]c3ccccc23)-c2ccccc2N1", "note": "[paullone]", "values": [{"measurement": "inhibition of GSK-3α/β", "result": "inhibitor"}]}]}
